As usually defined, the EC50 is the concentration at which the effect is half-maximal. What is called Ki is the equilibrium dissociation constant of an inhibitor or competing ligand from its target. A low value points to higher affinity.

The chains behind the UniProt entries cited, without tags or fusion partners.
UniProt Q92847, whole entry: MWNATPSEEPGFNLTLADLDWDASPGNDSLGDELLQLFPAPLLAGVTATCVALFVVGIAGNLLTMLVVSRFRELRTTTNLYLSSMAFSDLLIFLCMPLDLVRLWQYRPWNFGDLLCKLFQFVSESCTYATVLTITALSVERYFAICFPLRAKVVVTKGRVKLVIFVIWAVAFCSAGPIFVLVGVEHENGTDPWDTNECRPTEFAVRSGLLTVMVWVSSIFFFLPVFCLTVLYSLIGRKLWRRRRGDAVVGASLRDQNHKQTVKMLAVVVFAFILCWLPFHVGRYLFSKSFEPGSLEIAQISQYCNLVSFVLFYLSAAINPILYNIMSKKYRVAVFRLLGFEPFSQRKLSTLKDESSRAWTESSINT

Data on five compounds can be found in US10258602B2 (Ocera Therapeutics, Inc., priority 2007, dated 2019).

The target of the first test is GHS-R1a receptor (human ghrelin receptor) (Homo sapiens, UniProt Q92847). The test is described as follows: Aequorin functional assay (ghrelin receptor), standard method B. The settings on record: functional activity at the human ghrelin receptor.
For the compound `CCC(C)C1NCC(C)Oc2ccccc2CCCNC(=O)C(CC(C)C)NC(=O)C(C)N(C)C1=O` (single isomer, unassigned), the EC50 is below 400 nM.

Another test addresses human growth hormone secretagogue receptor (hGHS-R1a) (Homo sapiens, UniProt Q92847). The test is described as follows: Competitive radioligand binding assay (ghrelin receptor), standard method A. The settings on record: binding activity at the human ghrelin receptor.
Compound `CC1CCc2ccccc2OCCNC(C2CC2)C(=O)N(C)C(C)C(=O)NC(Cc2ccc(O)cc2)C(=O)N1` (single isomer, unassigned) registered a Ki below 100 nM.
Still for that read-out and setting: the figure for `CC(C)CC1NC(=O)C(C)N(C)C(=O)C(C2CC2)NCC(C)Oc2cccnc2CCCNC1=O` (single isomer, unassigned) is below 500 nM; for `CC(C)C[C@H]1NC(=O)[C@@H](C)N(C)C(=O)[C@H](C2CC2)NCC2Cc3cccc(c3O2)CCCNC1=O` (single isomer, unassigned) it is above 500 nM; for `C[C@@H]1C(=O)N[C@H](Cc2ccc(F)cc2)C(=O)NCCCc2cccc3c2OC(CN[C@@H](C2CC2)C(=O)N1C)C3` (single isomer, unassigned) it is below 100 nM.
The same measure, in the same setting: to `CCC(C)C1NCC(C)Oc2ccccc2CCCNC(=O)C(CC(C)C)NC(=O)C(C)N(C)C1=O` (single isomer, unassigned) belongs below 100 nM.
